The text below walks through data of patent US9416348B2, “Hepatocyte-like cells and uses thereof” (priority 2010, dated 2016).

Read-outs that look alike come from different tables or passages of the source.

The subject of one series is iHep cells. The conditions noted are these: mouse, 3 h, 200 μM. As to the method: (§1) To determine Alb secretion, TTFs transduced with three factors were cultured in the medium without phenol red. Culture supernatant was collected 24 h after medium change. The amount of Alb in the supernatant was determined by the mouse albumin ELISA kit (BETHYL LABORATORY) according to the manufacturer's instructions. […] The supernatants were collected for measurement of indicated productions by LC-MS/MS (AGILENT 1200 HPLC and ABI 4000 mass-spectrometer). Freshly isolated hepatocytes were used as a positive control. Total cell protein amount was used to normalize the data.
(§2) Metabolites of these chemicals were measured by liquid chromatography-tandem mass spectrometry (LC/MS/MS) according to each standard curve.

The next series relates to TTF. To be noted: mouse, 3 h. As to the method:
as §1, §2

The subject of another series is Primary hepatocyte. To be noted: mouse, 3 h.

Consider `O=C(O)Cc1ccccc1Nc1c(Cl)cccc1Cl` [Diclofenac, diclofenac], for which the “4′-OH-Diclotenac” value is 756.7 ± 63.6 pmol/min/mg protein with iHep cells; 0.0 pmol/min/mg protein in the series on TTF (12.5 μM); 2.8 ± 2.4 pmol/min/mg protein in the series with TTF (25 μM); 32.5 ± 13.6 pmol/min/mg protein in the series on TTF (50 μM); 119.8 ± 11.0 pmol/min/mg protein with TTF (100 μM); 190.8 ± 22.8 pmol/min/mg protein with Primary hepatocyte (12.5 μM). Besides, the “4′-OH-Diclotenac” value in the series on Primary hepatocyte (25 μM) is 283.1 ± 23.3 pmol/min/mg protein; in the series on Primary hepatocyte (50 μM) it was 452.8 ± 47.6 pmol/min/mg protein; in the series on Primary hepatocyte (200 μM) it was 1484.6 ± 8.0 pmol/min/mg protein.
